This passage reports Vm and Ratio results from ChEMBL document CHEMBL1127675, “Benzo[f]quinazoline inhibitors of thymidylate synthase: methyleneamino-linked aroylglutamate derivatives” (J Med Chem, 1994).

In assay [1] the test system is Folylpolyglutamate synthetase (Sus scrofa). The experiment in a line: Substrate selectivity for hog liver Folyl-polyglutamate synthase was assessed from Vm.
The nature of assay [2]: Ratio of Vm and Km values, a measure of Substrate selectivity for hog liver folyl-poly-glutamate synthetase.

In turn, `Nc1nc(O)c2c(ccc3ccc(CNc4ccc(C(=O)N[C@@H](CCC(=O)O)C(=O)O)cc4)cc32)n1` yielded a Vm in assay [1] of 66%. Besides, the Ratio in assay [2] was determined as 2.7.
